Experiments:
Heat shock protein HSP90 [1] = molecular target: T1, Heat shock protein HSP90 (Homo sapiens, UniProt P07900+P08238)
Heat shock protein HSP90 [2] = molecular target: T1, Heat shock protein HSP90; remark: listed apart in the source
Heat shock protein HSP90 [3] = molecular target: T1, Heat shock protein HSP90; remark: listed apart in the source

Protein sequences, listed by entry. Tags and fused reporters are not part of them.
UniProt P08238, whole entry, looked up: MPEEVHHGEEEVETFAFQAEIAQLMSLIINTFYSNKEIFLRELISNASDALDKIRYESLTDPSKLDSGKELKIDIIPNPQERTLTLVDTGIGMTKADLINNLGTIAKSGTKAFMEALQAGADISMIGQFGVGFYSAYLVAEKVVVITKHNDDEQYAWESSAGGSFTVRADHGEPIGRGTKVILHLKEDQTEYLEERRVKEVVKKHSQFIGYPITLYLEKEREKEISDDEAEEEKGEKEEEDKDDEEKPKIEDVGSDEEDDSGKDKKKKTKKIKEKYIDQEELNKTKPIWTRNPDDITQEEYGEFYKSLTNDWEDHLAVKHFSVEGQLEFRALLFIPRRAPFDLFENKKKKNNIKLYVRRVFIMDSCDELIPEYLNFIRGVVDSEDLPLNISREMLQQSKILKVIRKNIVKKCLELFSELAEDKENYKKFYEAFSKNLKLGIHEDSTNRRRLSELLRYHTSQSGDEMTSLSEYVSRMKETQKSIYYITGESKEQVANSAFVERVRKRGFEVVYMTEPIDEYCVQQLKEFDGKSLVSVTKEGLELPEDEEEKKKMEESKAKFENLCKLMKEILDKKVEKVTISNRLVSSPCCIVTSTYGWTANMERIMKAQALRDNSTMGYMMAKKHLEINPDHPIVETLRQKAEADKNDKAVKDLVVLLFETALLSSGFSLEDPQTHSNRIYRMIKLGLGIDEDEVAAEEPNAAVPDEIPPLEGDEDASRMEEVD

O=C1/C(=C/c2ccncc2)CN(C(=O)c2cc(Cc3n[nH]c(=O)c4ccccc34)ccc2F)C/C1=C\c1ccncc1
KSV (Heat shock protein HSP90 [1]): 4.28 ×10⁴ L/mol
Kq (Heat shock protein HSP90 [2]): 4.28 ×10¹² L/mol/s
Ka (Heat shock protein HSP90 [3]): 8.14 ×10⁵ L/mol
